# Experimental data taken from PubChem BioAssay AID588814 (The Scripps Research Institute Molecular Screening Center, 2011).
# Protein sequences, listed by entry. Tags and fused reporters are not part of them. Lines headed by an entry give the natural chain unless they say otherwise; changes in a name come on top.
# UniProt P11229: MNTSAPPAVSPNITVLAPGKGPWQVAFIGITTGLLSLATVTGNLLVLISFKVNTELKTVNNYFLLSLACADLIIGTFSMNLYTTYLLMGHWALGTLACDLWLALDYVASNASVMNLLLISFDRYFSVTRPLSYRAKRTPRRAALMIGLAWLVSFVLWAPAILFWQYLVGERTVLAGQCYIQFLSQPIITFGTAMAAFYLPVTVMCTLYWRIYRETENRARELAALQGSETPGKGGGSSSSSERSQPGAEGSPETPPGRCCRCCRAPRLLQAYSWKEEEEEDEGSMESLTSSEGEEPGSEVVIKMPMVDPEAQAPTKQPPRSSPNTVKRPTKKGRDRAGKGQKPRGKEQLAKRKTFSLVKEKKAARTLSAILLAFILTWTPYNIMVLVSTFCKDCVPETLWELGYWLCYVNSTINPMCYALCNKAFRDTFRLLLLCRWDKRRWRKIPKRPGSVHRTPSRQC
# Only a part is listed here, and it is no random draw. The source made the active and inactive calls.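 How the source made its calls: active means activation above the run's mean compound activation plus 3 SD (cut at about 16% in these data); inactive means the rest.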
# Target: Muscarinic acetylcholine receptor M1 (Homo sapiens) (UniProt P11229)
# Test: human M1 muscarinic receptor agonists, primary screen, Fluo-8 calcium fluorescence, CHO-K1 cells, HTS (AID 588814);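 further: peak over basal fluorescence ratio within a 140 s kinetic read after compound addition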
# Conditions: CHO-K1 hM1, Fluo-8 calcium fluorescence, agonist mode; at 3 µM; active compounds read high; 0% DMSO, 100% acetylcholine EC100
row,Structure (SMILES),activation
1,CN(C(=O)Cc1ccc(Cl)c(Cl)c1)[C@@H]1CCCC[C@H]1N1CCCC1,inactive: -6.99%
2,CC(C)/C=N\N=C(\N)N[N+](=O)[O-],inactive: -3.53%
3,COc1ccccc1CNC(=O)COC(=O)C(O)(c1ccccc1)c1ccccc1,inactive: -2.84%
4,CC(C)(C)C(=O)NC(Sc1ncccn1)C(Cl)(Cl)Cl (stereo not given),inactive: -3.03%
5,Clc1n[nH]nc1-c1nn[nH][15n]1,inactive: -1.65%
6,O=P1(N(CCCl)CCCl)NCCC(C(F)(F)F)O1 (stereo not given),inactive: 0.65%
7,CCOP(=O)(Nc1ccc(C)cn1)OCC,inactive: -4.36%
8,CN(CCCl)Cc1cc(Cl)c(NC2=NCCN2)c(Cl)c1,inactive: -7.53%
9,CCOP(=O)(NC(=NC(C)c1ccccc1)NC(C)c1ccccc1)OCC (stereo not given),inactive: -0.42%
10,CCC1=CC2Cc3nc4ccc(Cl)cc4c(N)c3C(C1)C2 (stereo not given),inactive: -8.15%
11,O=P1(Nc2ccccn2)COc2ccccc2OC1,inactive: 0.07%
12,O=[As](O)(c1cccs1)c1cccs1,inactive: -0.08%
13,Cc1ccc(OCC(=O)OC2CN3CCC2CC3)cc1 (stereo not given),inactive: -6.44%
14,NS(=O)(=O)c1cccc(NC(=O)COC(=O)C(O)(c2ccccc2)c2ccccc2)c1,inactive: -3.98%
15,O=P1(Nc2ccc(Br)cn2)COc2ccccc2OC1,inactive: -3.51%
16,Nc1cccc([As](=O)(O)c2ccccc2)c1,inactive: -3.45%
17,O=P1(Nc2ncccn2)COc2ccccc2OC1,inactive: -2.85%
18,Cc1ccc(S(=O)(=O)N(CCCN)CCCc2c(C)nc(N)[nH]c2=O)cc1,inactive: -11.4%
19,CCCC1OP(=O)(Nc2ccccc2)OCC1CC (stereo not given),inactive: -2.31%
20,O=C(/C=C/c1ccccc1)OC1CN2CCC1CC2 (stereo not given),inactive: -4.68%
21,Cc1ccc(C(=O)OC2CN3CCC2CC3)cc1 (stereo not given),inactive: -10%
22,CC1CCC(C(C)C)C(OP(=O)(Nc2ccccn2)c2ccccc2)C1 (stereo not given),inactive: 0.32%
23,Cc1nn(-c2ccccc2)c2c1P(=O)(N1CCOCC1)N(C)C(c1ccccc1)=N2 (stereo not given),inactive: -5.45%
24,O=[N+]([O-])c1ccc(Nc2ccc(Oc3ccc([N+](=O)[O-])cc3[N+](=O)[O-])cc2)c([N+](=O)[O-])c1,inactive: -1.39%
25,Cc1cc(SC(NC=O)C(Cl)(Cl)Cl)ncn1 (stereo not given),inactive: -2.41%

row,Structure (SMILES),activation
1,O=P(Nc1ccccn1)(c1cccc2ccccc12)c1cccc2ccccc12,inactive: -3.55%
2,CCOC(=O)Nc1cccc([As](=O)(O)O)c1,inactive: 3.2%
3,Cc1cc(SC(NC(=O)c2ccccc2)C(Cl)(Cl)Cl)nc(C(C)C)n1 (stereo not given),inactive: -6.76%
4,COP(=O)(OC)N1CC1c1ccccc1 (stereo not given),inactive: -3.34%
5,C/C=C1/CC(C)C(C)(O)C(=O)OCC2CCN3CCC(OC1=O)C23 (stereo not given),inactive: -9.15%
6,CC1CCNP(=O)(N(CCCl)CCCl)O1 (stereo not given),inactive: -0.91%
7,O=C(O)C(O)c1ccc(N(CCCl)CCCl)cc1 (stereo not given),inactive: -1.54%
8,CCOC(=O)Nc1ccc([As](=O)(O)O)c(O)c1,inactive: -2.16%
9,CCC(C)N(CC(C)C)C(=S)SC(NC(C)=O)C(Cl)(Cl)Cl (stereo not given),inactive: -3.01%
10,CCOC(=O)c1ccc(NC(=O)C(C)(CCl)SC)cc1 (stereo not given),inactive: -3.46%
11,CSc1ccc(Nc2c([N+](=O)[O-])cc([N+](=O)[O-])cc2[N+](=O)[O-])cc1,inactive: -0.32%
12,O=C(OC1CN2CCC1CC2)c1cccc([N+](=O)[O-])c1 (stereo not given),inactive: -8.18%
13,O=C(Nc1ccncc1[N+](=O)[O-])c1ccc([N+](=O)[O-])cc1[N+](=O)[O-],inactive: -1.52%
14,O=C(COc1ccccc1)OC1CN2CCC1CC2 (stereo not given),inactive: -7.01%
15,O=C(O)C(=O)c1ccc(N(CCCl)CCCl)cc1,inactive: -5.85%
16,COC(=O)C1(C)COP(=O)(N2CCCC2)OC1 (stereo not given),inactive: 1.98%
17,COP1(=S)c2c(C)nn(CCC#N)c2N=C(c2ccc(F)cc2)N1C (stereo not given),inactive: -5.88%
18,COc1ccc(N/C(=N/P(=O)(N2CCOCC2)N2CCOCC2)N2CCOCC2)cc1,inactive: -5.16%
19,O=[N+]([O-])c1cc(Oc2ccc([N+](=O)[O-])cc2C(F)(F)F)cc([N+](=O)[O-])c1,inactive: -5.39%
20,COc1cc(I)ccc1[As](=O)(O)O,inactive: -2.73%
21,COc1ccc2nc(NP(=O)(c3ccccc3)c3ccccc3)sc2c1,inactive: -6.29%
22,O=P1(N(CCCl)CCCl)OCCCN1CCCl (stereo not given),inactive: -1.48%
23,O=P1(N(CCCl)CCCl)Nc2ccccc2N1,inactive: -1.53%
24,Cc1cc(=O)[nH]c(N[N+](=O)[O-])n1,inactive: 1.45%
25,O=C(OC1CN2CCC1CC2)C12CC3CC(CC(C3)C1)C2 (stereo not given),inactive: -6.67%

row,Structure (SMILES),activation
1,Cc1c2c(nc3ccccc13)SC(C(Cl)Cl)C2 (stereo not given),inactive: -10.8%
2,O=[N+]([O-])c1cc([N+](=O)[O-])c(-c2ccn[nH]2)s1,inactive: -3.82%
3,CC(C)NC(=O)NP(=O)(Oc1ccccc1)Oc1ccccc1,inactive: -4.04%
4,O=C(OC1CN2CCC1CC2)c1cccc2[nH]cnc12 (stereo not given),inactive: -4.21%
5,CCN(CC)C(=S)SC(NC=O)C(Cl)(Cl)Cl (stereo not given),inactive: -1.56%
6,COC(=O)C1(C)COP(=O)(N2CCCCCC2)OC1 (stereo not given),inactive: -0.98%
7,CC(C)c1ccc(OP(=O)(Nc2ccccn2)Oc2ccccc2F)cc1 (stereo not given),inactive: 0.73%
8,ClCCSc1nnc(-c2cccnc2)o1,inactive: -4.42%
9,Cc1ccc2nc3c(c(C)c2c1)CC(C(Cl)Cl)S3 (stereo not given),inactive: -8.58%
10,CC(Cc1ccc(O)cc1)NCC(O)c1cc(O)cc(O)c1 (stereo not given),inactive: -5.52%
11,Cc1ccc(OP(=O)(Nc2ccc([N+](=O)[O-])cn2)Oc2ccc(C)cc2)cc1,inactive: -3.95%
12,O=[N+]([O-])c1ccc(-c2cc([N+](=O)[O-])c(O)c([N+](=O)[O-])c2)cc1,inactive: -2.4%
13,O=[As](O)(c1ccc(O)cc1)c1ccccc1O,inactive: -1.56%
14,C[As](=O)(O)c1cccc(C(=O)O)c1,inactive: -3.45%
15,CCN(N=Nc1nonc1N)c1nonc1N,inactive: -1.3%
16,Nc1cccc2ccc([As](=O)(O)O)cc12,inactive: -3.21%
17,CN(C(=O)Cc1ccc(Cl)c(Cl)c1)[C@H]1CCCC[C@@H]1N1CCCC1,inactive: -6.04%
18,Cc1ccc(NP(=O)(Oc2ccccc2F)Oc2ccccc2F)nc1,inactive: -2.57%
19,Cc1cc(SC(NC(=O)c2ccc(F)cc2)C(Cl)(Cl)Cl)ncn1 (stereo not given),inactive: -5.13%
20,CCOP(=O)(Nc1ccccc1)OCC,inactive: -3.51%
21,CCCC1OP(N)(=O)OCC1CC (stereo not given),inactive: -1.35%
22,CC(=O)O[C@]1(C)C(=O)OC/C2=C/CN(C)CCC(OC(=O)[C@@](O)(C(C)O)C[C@H]1C)C2=O (stereo not given in full),inactive: -4.01%
23,CC(=O)Nc1ccc([As](=O)(O)O)cc1,inactive: -1.14%
24,O=C(O)c1ccccc1[As](=O)(O)O,inactive: 1.02%
25,O=P(Nc1nc2ccc(Cl)cc2s1)(c1ccccc1)c1ccccc1,inactive: -1.56%

row,Structure (SMILES),activation
1,CN(C)P(=O)(N(C)C)n1c(Nc2ccccc2)nnc1-c1ccccc1,inactive: -6.01%
2,O=[N+]([O-])C1C(O)C(O)C([N+](=O)[O-])C(O)C1O (stereo not given),inactive: -1.82%
3,Nc1cc(N)c2nonc2c1[N+](=O)[O-],inactive: -2.19%
4,CC(C)CC(=O)NC(Sc1ccc(Cl)cc1)C(Cl)(Cl)Cl (stereo not given),inactive: -8.08%
5,O=C(NC(Sc1ccncn1)C(Cl)(Cl)Cl)c1ccccc1 (stereo not given),inactive: -3.5%
6,Oc1ccccc1CNc1ccccn1,inactive: -6.88%
7,Cc1ccc(OP(=O)(Nc2nccs2)Oc2ccc(C)cc2)cc1,inactive: 1.55%
8,COc1ccccc1OP(=O)(Nc1ccc(C)cn1)Oc1ccccc1OC,inactive: -4.21%
9,CC(C)[C@H]1C(=O)O[C@@H]2CCN3CC=C(COC(=O)[C@](C)(O)[C@]1(C)O)[C@H]23,inactive: -8.18%
10,CN1CCCC(OC(=O)C(c2ccccc2)c2ccccc2)C1 (stereo not given),inactive: -5.85%
11,Clc1ccc(Cl)c(NC2=NCC(CBr)S2)c1 (stereo not given),inactive: -8.98%
12,NC(=O)c1cc([N+](=O)[O-])cc([N+](=O)[O-])c1N,inactive: -2.64%
13,Cc1ccc(N/C(=N/P(=O)(N2CCOCC2)N2CCOCC2)N2CCOCC2)cc1,inactive: -2.95%
14,CN(C(=O)Cc1ccc(Cl)c(Cl)c1)[C@H]1CCCC[C@H]1N1CCCC1,inactive: -6.26%
15,CN(C)C(=O)OCCc1n(C)cc[n+]1C,inactive: -12.4%
16,CC(C)c1nc(Nc2ccccc2)n(P(=O)(N(C)C)N(C)C)n1,inactive: -2.3%
17,CC(C)=N/N=C(\N)N[N+](=O)[O-],inactive: -6.8%
18,CC1CCN(C(=O)Oc2c(Cl)cc(Cl)c3cccnc23)CC1,inactive: -2.3%
19,c1cc(-c2nn[nH]n2)ccc1-c1nn[nH]n1,inactive: 2.88%
20,C[N+]1=C2C=CC=CC=C2SC12C([N+](=O)[O-])=CC([N+](=O)[O-])=C[C-]2[N+](=O)[O-] (stereo not given),inactive: 0.51%
21,Nc1ccc([As](=O)(O)c2ccc(N)cc2)cc1,inactive: 0.49%
22,CCN(/C(=N/P(=O)(N1CCOCC1)N1CCOCC1)N1CCOCC1)c1ccc(OC)cc1,inactive: -3.97%
23,CC(=O)N1C2C3N(C(C)=O)C1C1N(C(C)=O)C(C(N1C(C)=O)N3C(C)=O)N2C(C)=O,inactive: -1.94%
24,O=[N+]([O-])c1cccc2n[nH]nc12,inactive: -3.23%
25,O=[N+]([O-])c1cc([N+](=O)[O-])c(CCNc2ccccc2)c([N+](=O)[O-])c1,inactive: -4.2%
